Amino acid sequences for entries named in this document (tags omitted).
UniProt Q9RUB5, whole entry H304A: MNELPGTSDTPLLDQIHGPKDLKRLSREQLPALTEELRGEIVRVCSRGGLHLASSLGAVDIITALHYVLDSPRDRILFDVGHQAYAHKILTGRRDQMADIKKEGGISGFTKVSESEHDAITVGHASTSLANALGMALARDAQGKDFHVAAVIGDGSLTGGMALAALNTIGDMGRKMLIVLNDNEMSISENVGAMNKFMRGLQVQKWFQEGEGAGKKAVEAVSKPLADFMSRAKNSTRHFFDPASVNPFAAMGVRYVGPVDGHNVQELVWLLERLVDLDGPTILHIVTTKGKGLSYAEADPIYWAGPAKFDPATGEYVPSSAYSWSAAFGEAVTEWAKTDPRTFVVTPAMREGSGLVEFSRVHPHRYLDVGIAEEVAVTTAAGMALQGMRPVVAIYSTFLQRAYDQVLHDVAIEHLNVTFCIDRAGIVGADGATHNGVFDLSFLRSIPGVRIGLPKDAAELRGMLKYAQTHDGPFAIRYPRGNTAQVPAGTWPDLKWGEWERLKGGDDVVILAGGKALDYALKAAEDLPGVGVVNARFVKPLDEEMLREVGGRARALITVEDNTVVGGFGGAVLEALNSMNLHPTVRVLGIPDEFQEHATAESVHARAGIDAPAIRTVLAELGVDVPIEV

According to paper PMC9491098, “Discovery of novel drug-like antitubercular hits targeting the MEP pathway enzyme DXPS by strategic application of ligand-based virtual screening” (Chemical Science, 2022):

Target: DrDXPS (H304A) (Deinococcus radiodurans, UniProt Q9RUB5, H304A)
Experiment: biochemical

SMILES | IC50 [µM] | inhibition at 100 µM (read-out: Inhibition % at 100 μM) [%]
Cc1nc(N)sc1-c1csc(Nc2ccc(C(F)(F)F)cc2)n1 [Compound 10] | > 200 | 
OCc1cn(Cc2ccc(Cl)c(Cl)c2)c2ccccc12 [Compound 7] |  | 32 ± 2
ON=C(Cc1ccc(Cl)cc1)c1ccc(O)cc1O [Compound 9] | > 200 | 
Cc1ncc(Cc2csc(CCO)c2C)c(N)n1 [DZT, deazathiamine, reference compound] | > 4000 | 
